A word on the inhibition: it is the drop in the measured response relative to a control, in per cent.

The entries are a selection whose mix differs from that of the whole data set. Activity calls are given as the source filed them.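 Rule for the calls: active = inhibition of at least 40%; inactive = the rest.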

A short description of the experiment: growth inhibition of tim10-1 ts yeast – luminescence, uHTS, primary screen (AID 463190).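 Note: mutant grown at 25 °C; 0% = DMSO wells with yeast and 100% = wells holding no yeast.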 The settings on record: S. cerevisiae tim10-1 ts strain growth, BacTiter-Glo, 24 h; at 20 µM; active compounds read high.
As to `C[C@H]1OP(=O)(Oc2ccccc2)C[C@@H]2O[C@@H]21` (some centres undefined), the inhibition is inactive: -3.52%.

Regarding `C[C@@H]1C=CCP(=O)(Oc2ccccc2)O1` (some centres undefined), the inhibition was inactive: -11.5%.

As to `Cc1ccccc1CN(C)C(=O)COC(=O)C(O)(c1ccccc1)c1ccccc1`, the inhibition was inactive: 13.1%.

As to `CC(C)(C)C(=O)NC(Sc1ccccc1)C(Cl)(Cl)Cl` (centres undefined), the inhibition was inactive: 8.49%.

Regarding `CCOc1ccc(C2=NCC(CBr)S2)cc1` (centres undefined), the inhibition is inactive: 9.36%.

For `O=P1(Nc2nc3ccc(Cl)cc3s2)COc2ccccc2O1` (centres undefined), the inhibition was inactive: 12.1%.

For `Nc1cc(N)c2nonc2c1[N+](=O)[O-]`, the inhibition was inactive: -4.71%.

As for `CC(C)CC(=O)NC(Sc1ccc(Cl)cc1)C(Cl)(Cl)Cl` (centres undefined), the inhibition is inactive: 13%.

For the compound `O=C(NC(Sc1ccncn1)C(Cl)(Cl)Cl)c1ccccc1` (centres undefined), the inhibition is inactive: 12.2%.

On to `Cc1c2non([O-])c-2c(C)[n+](=O)[n+]1[O-]`, for which the inhibition was active: 45.7%.

On to `Oc1ccccc1CNc1ccccn1`, for which the inhibition is inactive: -13.3%.

With `Cc1ccc(OP(=O)(Nc2nccs2)Oc2ccc(C)cc2)cc1`, the inhibition is inactive: 11.2%.

As for `COc1ccccc1OP(=O)(Nc1ccc(C)cn1)Oc1ccccc1OC`, the inhibition was inactive: 13.7%.

In the case of `CN1CCCC(OC(=O)C(c2ccccc2)c2ccccc2)C1` (centres undefined), the inhibition was inactive: 10.7%.

Take `Clc1ccc(Cl)c(NC2=NCC(CBr)S2)c1` (centres undefined): the inhibition is inactive: 17.9%.

As to `NC(=O)c1cc([N+](=O)[O-])cc([N+](=O)[O-])c1N`, the inhibition is inactive: 17.8%.

In the case of `Cc1ccc(N/C(=N/P(=O)(N2CCOCC2)N2CCOCC2)N2CCOCC2)cc1`, the inhibition is inactive: 10.4%.

In the case of `CN(C(=O)Cc1ccc(Cl)c(Cl)c1)[C@H]1CCCC[C@H]1N1CCCC1`, the inhibition is inactive: -3.16%.

`CCN(N=Nc1nonc1N)c1nonc1N`: the inhibition is inactive: -2%.

On to `O=[N+]([O-])c1cc([N+](=O)[O-])c(CCN2CCOCC2)c([N+](=O)[O-])c1`, for which the inhibition was inactive: 31.2%.

As to `Cc1ccc(NP(=O)(Oc2ccccc2F)Oc2ccccc2F)nc1`, the inhibition is inactive: 12%.

For `CN(C(=O)Cc1ccc(Cl)c(Cl)c1)[C@H]1CCCC[C@@H]1N1CCCC1`, the inhibition was inactive: 16.9%.

Consider `Cc1cc(SC(NC(=O)c2ccc(F)cc2)C(Cl)(Cl)Cl)ncn1` (centres undefined), for which the inhibition was inactive: 13.5%.

As to `CCOP(=O)(Nc1ccccc1)OCC`, the inhibition was inactive: 14.5%.

For `CC(=O)Nc1ccc([As](=O)(O)O)cc1`, the inhibition was inactive: 2.94%.

Take `O=C(O)c1ccccc1[As](=O)(O)O`: the inhibition was inactive: 21.4%.

Regarding `O=P(Nc1nc2ccc(Cl)cc2s1)(c1ccccc1)c1ccccc1`, the inhibition was inactive: 17.3%.

As to `O=[N+]([O-])c1cccc(NC2=NCC(CBr)S2)c1` (centres undefined), the inhibition was inactive: 11.6%.

On to `CC(C)(C)C(=O)NC(Sc1ccncn1)C(Cl)(Cl)Cl` (centres undefined), for which the inhibition was inactive: 3.21%.

As to `O=[N+]([O-])c1ncn(CCn2ncnc2[N+](=O)[O-])n1`, the inhibition was inactive: -1.99%.

Turning to `O=C(Nc1cc([As](=O)(O)O)ccc1O)c1ccccc1`, the inhibition was inactive: 22.7%.

Take `CN(C)C(=O)OCCc1n(C)cc[n+]1C`: the inhibition was inactive: 20.8%.

As to `CC(C)=N/N=C(\N)N[N+](=O)[O-]`, the inhibition was inactive: 16.3%.

Turning to `CC1CCN(C(=O)Oc2c(Cl)cc(Cl)c3cccnc23)CC1`, the inhibition is inactive: 9.3%.

As for `C[N+]1=C2C=CC=CC=C2SC12C([N+](=O)[O-])=CC([N+](=O)[O-])=C[C-]2[N+](=O)[O-]` (centres undefined), the inhibition is inactive: 37.7%.

Turning to `Nc1ccc([As](=O)(O)c2ccc(N)cc2)cc1`, the inhibition was inactive: -10.8%.

As for `CCN(/C(=N/P(=O)(N1CCOCC1)N1CCOCC1)N1CCOCC1)c1ccc(OC)cc1`, the inhibition was inactive: 11.9%.

On to `O=[N+]([O-])c1cccc2n[nH]nc12`, for which the inhibition was inactive: 1.35%.

With `CC(=O)N1C2C3N(C(C)=O)C1C1N(C(C)=O)C(C(N1C(C)=O)N3C(C)=O)N2C(C)=O`, the inhibition was inactive: 2.87%.

With `CCc1nc2c(n1)c1c(non1O)c1c2no[n+]1[O-]`, the inhibition was inactive: 14.6%.

Consider `O=[N+]([O-])c1cc([N+](=O)[O-])c(CCNc2ccccc2)c([N+](=O)[O-])c1`, for which the inhibition is active: 45.7%.

Turning to `Cc1ccc(NP(=O)(Oc2ccccc2)Oc2ccccc2)nc1`, the inhibition was inactive: 8.25%.

With `COc1ccc(C2=NCC(CBr)S2)cc1` (centres undefined), the inhibition is inactive: 9.89%.

As to `CCC(C)N(CC(C)C)C(=S)SC(NC(C)=O)C(Cl)(Cl)Cl` (centres undefined), the inhibition was inactive: 25.2%.

Consider `CCOC(=O)c1ccc(NC(=O)C(C)(CCl)SC)cc1` (centres undefined), for which the inhibition is inactive: 23.7%.

As to `O=C(OC1CN2CCC1CC2)c1cccc([N+](=O)[O-])c1` (centres undefined), the inhibition is inactive: -139%.

Take `O=C(Nc1ccncc1[N+](=O)[O-])c1ccc([N+](=O)[O-])cc1[N+](=O)[O-]`: the inhibition was inactive: 33.7%.

As for `O=C(COc1ccccc1)OC1CN2CCC1CC2` (centres undefined), the inhibition was inactive: -13.6%.

Regarding `COP1(=S)c2c(C)nn(CCC#N)c2N=C(c2ccc(F)cc2)N1C` (centres undefined), the inhibition was inactive: 12.4%.

With `O=P(Nc1ccccn1)(c1cccc2ccccc12)c1cccc2ccccc12`, the inhibition is inactive: 28.5%.

For `Cc1cc(SC(NC=O)C(Cl)(Cl)Cl)ncn1` (centres undefined), the inhibition is inactive: 10.6%.

As to `CCOC(=O)Nc1cccc([As](=O)(O)O)c1`, the inhibition was inactive: 5.99%.

`Cc1cc(SC(NC(=O)c2ccccc2)C(Cl)(Cl)Cl)nc(C(C)C)n1` (centres undefined): the inhibition is inactive: 31.4%.

Turning to `CCCCOc1ccc(C(=O)NCC2(N3CCCCC3)CCCCC2)cc1OC`, the inhibition is inactive: 8.46%.

On to `CCOC(=O)Nc1ccc([As](=O)(O)O)c(O)c1`, for which the inhibition was inactive: 0.357%.

In the case of `O=[N+]([O-])c1cc([N+](=O)[O-])c(-c2ccn[nH]2)s1`, the inhibition is active: 87.8%.

As for `CC(C)NC(=O)NP(=O)(Oc1ccccc1)Oc1ccccc1`, the inhibition is inactive: 7.14%.

On to `O=C(OC1CN2CCC1CC2)c1cccc2[nH]cnc12` (centres undefined), for which the inhibition is inactive: -7.23%.

For the compound `CCN(CC)C(=S)SC(NC=O)C(Cl)(Cl)Cl` (centres undefined), the inhibition was inactive: 15%.

(Values after PubChem BioAssay AID463190 (Sanford-Burnham Center for Chemical Genomics, 2010).)
